Values quoted from earlier work in publication PMC6572996, “Silver(I) Complexes of the Pharmaceutical Agents Metronidazole and 4-Hydroxymethylpyridine: Comparison of Cytotoxic Profile for Potential Clinical Application” (Molecules, 2019).

Columns and labels:
[1] = system: murine melanocyte cell line (Melan-a); conditions: concentration range 1 to 10 µM, 72 h incubation; cited from earlier work
[2] = system: murine melanoma cell line (B16F10); conditions: concentration range 1 to 10 µM, 72 h incubation; cited from earlier work
NIH 3T3 fibroblasts = conditions: higher concentrations (1.5%), exposure 72 h; cited from earlier work

O=[N+]([O-])[O-].[Ag+] [Silver nitrate]
Cytotoxicity in Melan-a [1]: not cytotoxic
Cytotoxicity in B16F10 [2]: not cytotoxic
Toxicity on NIH 3T3 fibroblasts (NIH 3T3 fibroblasts): toxic action
